Target: T1, CCR5 (Homo sapiens, UniProt P51681)
T1 construct: expressed in transfected cells; host or cells: L1.2
Assay: L1.2-CCR5 Chemotaxis
Type: cell-based
Details: read-out: Potency (IC50), CCR5

The chains behind the UniProt entries cited, without tags or fusion partners.
UniProt P51681, whole entry: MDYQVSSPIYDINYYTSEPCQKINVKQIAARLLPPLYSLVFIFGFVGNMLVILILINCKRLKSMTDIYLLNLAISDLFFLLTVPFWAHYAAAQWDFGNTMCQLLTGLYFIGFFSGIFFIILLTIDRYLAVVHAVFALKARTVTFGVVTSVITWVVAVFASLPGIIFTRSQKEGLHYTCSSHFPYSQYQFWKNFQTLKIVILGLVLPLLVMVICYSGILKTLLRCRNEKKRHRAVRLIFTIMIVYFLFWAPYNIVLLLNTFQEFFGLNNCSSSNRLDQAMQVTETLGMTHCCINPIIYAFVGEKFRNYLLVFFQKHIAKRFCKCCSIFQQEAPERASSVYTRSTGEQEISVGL

IC50: > 8 µM
SMILES: Cc1cnc(C(=O)c2ccnc3[nH]ccc23)c(NS(=O)(=O)c2ccc(Cl)c(C(F)(F)F)c2)c1 [Compound 1]
